Measurements taken from BindingDB's records for 34648286, “Structure-Activity Relationship of USP5 Inhibitors” (2021).

Chains of the proteins cited; added tags and fusions are not shown. Lines headed by an entry give the natural chain unless they say otherwise; changes in a name come on top.
UniProt Q9UBN7: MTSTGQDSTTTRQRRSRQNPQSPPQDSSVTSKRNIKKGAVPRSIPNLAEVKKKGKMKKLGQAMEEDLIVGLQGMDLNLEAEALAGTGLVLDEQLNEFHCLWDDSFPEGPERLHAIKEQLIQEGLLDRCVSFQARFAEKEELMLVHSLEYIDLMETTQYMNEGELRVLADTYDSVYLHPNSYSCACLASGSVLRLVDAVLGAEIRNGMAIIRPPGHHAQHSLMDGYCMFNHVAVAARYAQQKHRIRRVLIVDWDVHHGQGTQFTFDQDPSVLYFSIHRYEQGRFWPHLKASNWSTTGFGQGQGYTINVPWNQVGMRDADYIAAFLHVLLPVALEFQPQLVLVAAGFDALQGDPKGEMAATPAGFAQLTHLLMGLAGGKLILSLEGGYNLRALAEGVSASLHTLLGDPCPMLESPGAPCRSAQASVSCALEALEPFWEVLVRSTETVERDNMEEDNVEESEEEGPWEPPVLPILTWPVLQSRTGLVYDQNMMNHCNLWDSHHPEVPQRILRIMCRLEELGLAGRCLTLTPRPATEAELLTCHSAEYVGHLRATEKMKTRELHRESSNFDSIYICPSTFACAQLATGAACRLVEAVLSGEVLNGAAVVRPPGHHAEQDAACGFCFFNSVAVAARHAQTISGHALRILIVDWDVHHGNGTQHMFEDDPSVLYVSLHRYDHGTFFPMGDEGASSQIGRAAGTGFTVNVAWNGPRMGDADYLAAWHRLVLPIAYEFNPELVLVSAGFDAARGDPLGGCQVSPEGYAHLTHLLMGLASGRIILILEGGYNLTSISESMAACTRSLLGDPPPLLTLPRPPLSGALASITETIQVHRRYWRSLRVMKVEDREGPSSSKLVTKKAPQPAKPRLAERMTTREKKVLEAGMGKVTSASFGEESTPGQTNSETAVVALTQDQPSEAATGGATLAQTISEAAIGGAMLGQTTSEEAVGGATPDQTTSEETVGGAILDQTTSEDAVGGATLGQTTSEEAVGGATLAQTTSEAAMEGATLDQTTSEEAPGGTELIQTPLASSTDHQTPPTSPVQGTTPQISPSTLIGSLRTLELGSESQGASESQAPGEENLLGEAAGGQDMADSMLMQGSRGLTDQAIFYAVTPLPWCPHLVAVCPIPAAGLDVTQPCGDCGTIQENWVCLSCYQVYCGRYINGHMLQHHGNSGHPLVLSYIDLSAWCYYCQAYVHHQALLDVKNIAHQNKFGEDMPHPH

Molecular target: Histone deacetylase 6 (Homo sapiens, UniProt Q9UBN7)

For `O=C(O)CNC(=O)c1ccc(S(=O)(=O)N2CCC(N3C(=O)Cc4ccccc43)CC2)cc1`, the Kd was over 480 µM.
